The entries are a selection whose mix differs from that of the whole data set. Some tests of the compounds listed are not included; inactive here does not mean inactive elsewhere. Active and inactive are the calls of the source.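 How the source made its calls: active means mean replicate inhibition at least 50% and at least half of replicates individually reaching 50%; inconclusive means only one of the two criteria met; inactive means neither criterion met.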
Experiment: blockers of twin-arginine translocation in E. coli – MC4100, TorA-mCherry reporter, fluorescence, single point, primary screen (AID 488895);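 further: exported cargo escapes ClpAP degradation while cytoplasmic cargo is degraded and loses fluorescence; 0% = median of neutral control wells and 100% = median of NaSCN control wells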
Conditions: E. coli MC4100 TorA-mCherry Tat export, at 10 µM, active compounds read high

Compound	inhibition
CC(C)N1C(=O)CC2(CCN(CCOC(=O)C(O)(c3ccccc3)c3ccccc3)CC2)C1=O	inactive: -6.29%
CCN(CC)CC(C)C(C)OC(=O)C(O)(c1ccccc1)c1ccccc1 (stereo not given)	inactive: 3.8%
COc1cc(SC)ccc1C(=O)NCC1(N(C)C)CCCCC1	inactive: 1.24%
Cc1ccc(C(=O)NCC2(N3CCCCC3)CCCCC2)cc1	inactive: -7.28%
O=C(NCC1(N2CCCCC2)CCCCC1)c1cc([N+](=O)[O-])ccc1Cl	inactive: 0.214%
CN1[C@@H]2CC[C@H]1CC(OC(=O)C(O)(c1ccccc1)c1ccccc1)C2 (stereo not given in full)	inactive: 0.791%
C=CCN1CCN(CCOC(=O)C(O)(c2ccccc2)c2ccccc2)CC1	inactive: -4.3%
O=C(NCC1(N2CCCCC2)CCCCC1)c1cc(F)c(F)cc1Cl	inactive: 0.719%
Cc1cc(C(=O)NCC2(N3CCCCC3)CCCCC2)ccc1[N+](=O)[O-]	inactive: -4.73%
CCN1CCCC(OC(=O)C2(O)c3ccccc3C=Cc3ccccc32)C1 (stereo not given)	inactive: 1.56%
O=C(NCC1(N2CCCCC2)CCCCC1)c1cccc(Br)c1	inactive: 1.96%
COc1ccc(C(=O)NCC2(N(C)C)CCCCC2)cc1	inactive: -1.68%
Cc1ccccc1C(=O)NCC1(N2CCCCC2)CCCCC1	inactive: -4.39%
CN(C)C1CCCC1OC(=O)C(O)(c1ccccc1)c1ccccc1 (stereo not given)	inactive: 1.71%
CN(C)c1ccc(C(=O)NCC2(N(C)C)CCCCC2)cc1	inactive: -7.91%
COc1cccc(C(=O)NCC2(N3CCCCC3)CCCCC2)c1	inactive: -2.33%
COc1ccc(Cl)cc1C(=O)NCC1(N(C)C)CCCCC1	inactive: -8.78%
O=C(NCC1(N2CCCCC2)CCCCC1)c1cccc(Cl)c1	inactive: 2.19%
CN(C)C1(CNC(=O)c2ccc(Br)cc2)CCCCC1	inactive: -3.05%
COc1cc(C(=O)NCC2(N(C)C)CCCCC2)c([N+](=O)[O-])cc1OC	inactive: -0.956%
COc1ccc(Br)c(C(=O)NCC2(N3CCCCC3)CCCCC2)c1	inactive: 5.49%
CN(C)c1cccc(C(=O)NCC2(N(C)C)CCCCC2)c1	inactive: -9.63%
CC(C)Oc1ccc(C(=O)NCC2(N(C)C)CCCCC2)cc1	inactive: 1.11%
O=C(OCCN1CCCC1)C(O)(c1ccccc1)c1ccccc1	inactive: 1.69%
O=C(OC1CN2CCC1CC2)C(CO)(c1ccccc1)c1ccccc1 (stereo not given)	inactive: -4.38%
